Reference: patent US20240123036A1, “COMPOSITIONS AND METHODS FOR THE TREATMENT OF GRAFT VERSUS HOST DISEASE” (VectivBio AG, priority 2021, published 2024)

Tested on: cytarabine-induced damage in BALB/cJ female mice

Substance: hGLP-2: unmodified hGLP-2, comparator given twice daily at a nominal dose of 0.60 mg/kg combined with cytarabine (HADGSFSDEMNTILDNLAARDFINWLIQTKITD; Glucagon-like peptide 2; UniProt P01275 146-178, looked up) [reference compound]
- initial weight loss (combination with cytarabine, apraglutide 0.11 mg/kg, hGLP-2 0.60 mg/kg twice daily): did not decrease
- body weight and survival in animals recovering from cytarabine treatment (combination with cytarabine, apraglutide 0.11 mg/kg, hGLP-2 0.60 mg/kg twice daily, FIG. 18): a trend towards increased body weight and survival
- polymorphonuclear (PMN) cell count (cytarabine 30 mg/kg twice per day, alone or combined with hGLP-2 or apraglutide, FIG. 20): not reversed
